Results published in patent publication US4966914A, “Oculoselective beta-blockers as antiglaucoma agents” (E. I. Du Pont de Nemours and Company, priority 1988, dated 1990).

Amino acid sequences for entries named in this document (tags omitted). Residues count along the entry.
UniProt H0W3H1, 1-470: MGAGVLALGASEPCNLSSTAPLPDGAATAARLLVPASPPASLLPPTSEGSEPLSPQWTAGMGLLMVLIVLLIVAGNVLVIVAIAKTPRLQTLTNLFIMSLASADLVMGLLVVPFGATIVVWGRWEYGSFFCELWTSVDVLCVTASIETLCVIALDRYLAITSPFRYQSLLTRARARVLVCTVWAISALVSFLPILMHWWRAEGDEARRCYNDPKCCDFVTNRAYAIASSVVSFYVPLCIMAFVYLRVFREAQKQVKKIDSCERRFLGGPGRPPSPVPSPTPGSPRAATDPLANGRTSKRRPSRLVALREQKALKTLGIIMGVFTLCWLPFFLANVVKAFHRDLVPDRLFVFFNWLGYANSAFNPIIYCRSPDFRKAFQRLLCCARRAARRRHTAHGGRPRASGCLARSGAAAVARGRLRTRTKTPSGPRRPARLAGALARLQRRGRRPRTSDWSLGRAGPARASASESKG

Target: ATRIA (Cavia porcellus, UniProt H0W3H1)
Test: In vitro potency (pA2), beta-blocking, atria
Conditions: Table 3
Description: The in vitro potency (pA2), in vivo potency and duration of action (DOA) of the compounds of the present invention are recorded in Tables 2 to 4. These pharmacological activities were determined using the methods described in U.S. patent 4,582,855 issued Apr.

SMILES: Cc1cc(O)c(O)cc1C(=O)OCC(O)CNC(C)(C)CNC(=O)C12CC3CC(CC(C3)C1)C2 (stereo not shown)
- pA2 ATRIA: 6.1
